# According to PubChem BioAssay AID1487 (National Center for Advancing Translational Sciences (NCATS), 2009):
# The list shows a part of the results, in another mix than the full data. Some tests of the compounds listed are not included; inactive here does not mean inactive elsewhere. Records with an inconclusive call do not appear. Calls of active or inactive are those of the source. The call rests on the fitted dose curve; in most records, active means well fitted inhibition curve with a large enough effect in the signal ratio, with a control signal flat (not every such curve was filed as active); inconclusive means small, poorly fitted or top-dose-only effect, or effect the other way, or a change in a side signal; inactive means flat fitted curve, though single readings scatter; the % refers to the signal ratio.
# Assay: qHTS Assay for Modulators of Lamin A Splicing
# Details: HeLa LMNA splicing GFP/RFP minigene ratio, 48 h; at 46 µM (top of the series) unless noted
# On the % scale 0 is the no-effect control and ±100 the full control effect.
row,SMILES,"ratio change, negative = inhibition"
1,CCCCOc1ccccc1C(=O)NCC1(N(C)C)CCCCC1,inactive: -3.61%
2,CN(C)C1CCCC1OC(=O)C(O)(c1ccccc1)c1ccccc1 (centres undefined),inactive: -10.4% [at 46.1 µM]
3,CCN1CCCC(OC(=O)C2(O)c3ccccc3C=Cc3ccccc32)C1 (centres undefined),inactive: 0.0934% [at 46.1 µM]
4,CCOc1cccc(C(=O)NCC2(N(C)C)CCCCC2)c1,inactive: 15.7%
5,CN(C)C1(CNC(=O)c2ccccc2F)CCCCC1,inactive: 12.8%
6,CC(C)N1C(=O)CC2(CCN(CCOC(=O)C(O)(c3ccccc3)c3ccccc3)CC2)C1=O,inactive: 8.6% [at 46.1 µM]
7,CN(C)C1(CNC(=O)c2cccc(Cl)c2)CCCCC1,inactive: 4.86%
8,CC(C)COc1ccc(C(=O)NCC2(N(C)C)CCCCC2)cc1,inactive: 11.1%
9,O=C(OC1CN2CCC1CC2)C(CO)(c1ccccc1)c1ccccc1 (centres undefined),inactive: 17.6% [at 46.1 µM]
10,COc1cccc(C(=O)NCC2(N3CCOCC3)CCCCC2)c1,inactive: 6.71%
11,CN(C)c1cccc(C(=O)NCC2(N(C)C)CCCCC2)c1,inactive: 7.5% [at 46.1 µM]
12,CC(C)Oc1ccc(C(=O)NCC2(N(C)C)CCCCC2)cc1,inactive: 7.44%
13,COc1ccc(C(=O)NCC2(N(C)C)CCCCC2)cc1Cl,inactive: 15%
14,COc1cccc(C(=O)NCC2(N3CCCCC3)CCCCC2)c1,inactive: 8.06%
